Results from patent US6864054B1, “Polypeptides from CREB binding protein and related protein p300 for use in transcriptional regulation” (Institute of Molecular and Cell Biology, priority 1998, dated 2005).

Test system: p53-dependent transcription
Assay: p53-responsive PG13CAT reporter in U-2 OS cells
Assay type: cell-based
Experimental: Transfections and CAT assays. U-2 OS cells or MRC5.SV40 cells (a gift from Dr. Peter Karran) were plated onto 10 cm-diameter culture dishes and transfected at 50-70% confluency using lipofectin reagent (GIBCO-BRL) as described previously (O'Connor et al., 1996). Chloramphenicol acetyl transferase (CAT) assays have also been described previously (O'Connor et al., 1996) and the data presented represents between three and ten independent transfection experiments.
Transfections and CAT assays. U-2OS cells were plated onto 10-cm-diameter culture dishes and transfected at 50-70% confluency using lipofectin reagent (GIBCO-BRL). Chloramphenicol acetyl transferase (CAT) assays have been described elsewhere (O'Conner & Bernard, 1995) and the data presented represent between three and eight experiments using at least two independent DNA preparations.

full-length Mdm2: Full-length Mdm2 (1-491) expressed by co-transfection
effect on TRAM activation of p53 by CBP (co-transfection with CMV-GST-CBP (1808-1852)): abolished
effect on p53-dependent transcription (co-transfection with PG13CAT): reduction in p53-dependent reporter activity
